Experimental findings from patent US20160009772A1, “CELL PENETRATING PEPTIDES WHICH BIND IRF5” (priority 2012, published 2016) are described below.

This assay addresses IRF5(222-467, S430D), S430D phosphomimetic construct of IRF5 (222-467) (human), Q13568. In words: TR-FRET IRF5 dimerization inhibition, S430D (222-467), peptide titrated.

One may read the IC50 as the concentration that inhibits the measured activity by half. Read a low IC50 as greater potency. In turn, MANLGYWLLLLFVTMWTDVGLAKKRPKP (modifications not checked) [Ac-…-NH2 (SEQ ID NO: 4)] registered an IC50 of 26.4 µM.
